# CycPeptMPDB entries from one study

Data: CycPeptMPDB; original report Kelly et al. 2021, doi:10.1021/jacs.0c06115.

PAMPA is the parallel artificial membrane permeability assay, which has no cells and reads passive diffusion.
P is given in units of 10^-6 cm/s (from log10 values with two decimals); larger means faster passage.

CC(=O)N1CCC[C@H]1C(=O)N(C)[C@H](CC(C)C)C(=O)N[C@@H]1C(=O)N(C)[C@@H](CC(C)C)C(=O)N[C@H](CC(C)C)C(=O)N(C)[C@@H](CC(C)C)C(=O)N(C)[C@@H](C)C(=O)N[C@H](CC(C)C)C(=O)N2CCC[C@@H]2C(=O)O[C@@H]1C is reported with PAMPA 0.78 × 10^-6 cm/s. For CC(=O)N1CCC[C@@H]1C(=O)N(C)[C@H](CC(C)C)C(=O)N[C@@H]1C(=O)N(C)[C@H](CC(C)C)C(=O)N(C)[C@H](CC(C)C)C(=O)N(C)[C@@H](CC(C)C)C(=O)N(C)[C@H](C)C(=O)N[C@H](CC(C)C)C(=O)N2CCC[C@H]2C(=O)O[C@@H]1C the data give PAMPA 6.3 × 10^-6 cm/s. Listed for CC(=O)N1CCC[C@H]1C(=O)N(C)[C@@H](CC(C)C)C(=O)N[C@@H]1C(=O)N(C)[C@@H](CC(C)C)C(=O)N(C)[C@@H](CC(C)C)C(=O)N(C)[C@H](CC(C)C)C(=O)N(C)[C@@H](C)C(=O)N[C@H](CC(C)C)C(=O)N2CCC[C@@H]2C(=O)O[C@@H]1C: PAMPA 3.1 × 10^-6 cm/s. CC(=O)N1CCC[C@H]1C(=O)N(C)[C@H](CC(C)C)C(=O)N[C@@H]1C(=O)N(C)[C@@H](CC(C)C)C(=O)N[C@@H](CC(C)C)C(=O)N(C)[C@H](CC(C)C)C(=O)N(C)[C@@H](C)C(=O)N[C@@H](CC(C)C)C(=O)N2CCC[C@@H]2C(=O)O[C@@H]1C is reported with PAMPA 5.1 × 10^-6 cm/s. For CC(=O)N1CCC[C@H]1C(=O)N(C)[C@H](CC(C)C)C(=O)N[C@@H]1C(=O)N[C@H](CC(C)C)C(=O)N(C)[C@@H](CC(C)C)C(=O)N(C)[C@H](CC(C)C)C(=O)N(C)[C@@H](C)C(=O)N[C@@H](CC(C)C)C(=O)N2CCC[C@H]2C(=O)O[C@@H]1C the data give PAMPA 5.1 × 10^-6 cm/s. Listed for CC(=O)N1CCC[C@@H]1C(=O)N(C)[C@@H](CC(C)C)C(=O)N[C@@H]1C(=O)N(C)[C@@H](CC(C)C)C(=O)N[C@H](CC(C)C)C(=O)N[C@@H](CC(C)C)C(=O)N[C@@H](C)C(=O)N[C@@H](CC(C)C)C(=O)N2CCC[C@@H]2C(=O)O[C@@H]1C: PAMPA 0.087 × 10^-6 cm/s. CC(=O)N1CCC[C@H]1C(=O)N[C@@H]1C(=O)N(C)[C@H](CC(C)C)C(=O)N(C)[C@@H](CC(C)C)C(=O)N(C)[C@@H](CC(C)C)C(=O)N[C@@H](CC(C)C)C(=O)N(C)[C@@H](C)C(=O)N[C@@H](CC(C)C)C(=O)N2CCC[C@@H]2C(=O)O[C@@H]1C has PAMPA 8.5 × 10^-6 cm/s. For CC(=O)N1CCC[C@@H]1C(=O)N(C)[C@@H](CC(C)C)C(=O)N[C@@H]1C(=O)N(C)[C@H](CC(C)C)C(=O)N(C)[C@H](CC(C)C)C(=O)N[C@@H](CC(C)C)C(=O)N(C)[C@@H](C)C(=O)N[C@H](CC(C)C)C(=O)N2CCC[C@@H]2C(=O)O[C@@H]1C the data give PAMPA 7.4 × 10^-6 cm/s.

The entry for CC(=O)N1CCC[C@H]1C(=O)N(C)[C@H](CC(C)C)C(=O)N[C@@H]1C(=O)N[C@H](CC(C)C)C(=O)N[C@H](CC(C)C)C(=O)N(C)[C@@H](CC(C)C)C(=O)N(C)[C@@H](C)C(=O)N[C@H](CC(C)C)C(=O)N2CCC[C@H]2C(=O)O[C@@H]1C lists PAMPA 1.4 × 10^-6 cm/s. For CC(=O)N1CCC[C@H]1C(=O)N(C)[C@@H](CC(C)C)C(=O)N[C@@H]1C(=O)N(C)[C@H](CC(C)C)C(=O)N[C@@H](CC(C)C)C(=O)N(C)[C@@H](CC(C)C)C(=O)N(C)[C@H](C)C(=O)N[C@H](CC(C)C)C(=O)N2CCC[C@@H]2C(=O)O[C@@H]1C the data give PAMPA 1.8 × 10^-6 cm/s. The entry for CC(=O)N1CCC[C@H]1C(=O)N[C@@H]1C(=O)N(C)[C@H](CC(C)C)C(=O)N[C@H](CC(C)C)C(=O)N[C@H](CC(C)C)C(=O)N[C@H](CC(C)C)C(=O)N[C@H](C)C(=O)N[C@@H](CC(C)C)C(=O)N2CCC[C@@H]2C(=O)O[C@@H]1C lists PAMPA 0.17 × 10^-6 cm/s. Listed for CC(=O)N1CCC[C@H]1C(=O)N(C)[C@H](CC(C)C)C(=O)N[C@@H]1C(=O)N[C@H](CC(C)C)C(=O)N(C)[C@@H](CC(C)C)C(=O)N[C@@H](CC(C)C)C(=O)N[C@@H](C)C(=O)N[C@H](CC(C)C)C(=O)N2CCC[C@H]2C(=O)O[C@@H]1C: PAMPA 1.9 × 10^-6 cm/s. CC(=O)N1CCC[C@@H]1C(=O)N(C)[C@@H](CC(C)C)C(=O)N[C@@H]1C(=O)N(C)[C@@H](CC(C)C)C(=O)N[C@@H](CC(C)C)C(=O)N(C)[C@@H](CC(C)C)C(=O)N(C)[C@H](C)C(=O)N[C@H](CC(C)C)C(=O)N2CCC[C@H]2C(=O)O[C@@H]1C is reported with PAMPA 0.71 × 10^-6 cm/s. Listed for CC(=O)N1CCC[C@H]1C(=O)N(C)[C@H](CC(C)C)C(=O)N[C@@H]1C(=O)N(C)[C@H](CC(C)C)C(=O)N[C@H](CC(C)C)C(=O)N[C@H](CC(C)C)C(=O)N[C@H](C)C(=O)N[C@H](CC(C)C)C(=O)N2CCC[C@@H]2C(=O)O[C@@H]1C: PAMPA 0.15 × 10^-6 cm/s. For CC(=O)N1CCC[C@H]1C(=O)N(C)[C@H](CC(C)C)C(=O)N[C@@H]1C(=O)N[C@H](CC(C)C)C(=O)N[C@H](CC(C)C)C(=O)N(C)[C@H](CC(C)C)C(=O)N[C@@H](C)C(=O)N[C@H](CC(C)C)C(=O)N2CCC[C@H]2C(=O)O[C@@H]1C the data give PAMPA 2 × 10^-6 cm/s. CC(=O)N1CCC[C@H]1C(=O)N(C)[C@H](CC(C)C)C(=O)N[C@@H]1C(=O)N[C@@H](CC(C)C)C(=O)N[C@@H](CC(C)C)C(=O)N[C@H](CC(C)C)C(=O)N[C@@H](C)C(=O)N[C@H](CC(C)C)C(=O)N2CCC[C@@H]2C(=O)O[C@@H]1C is reported with PAMPA 0.26 × 10^-6 cm/s.

CC(=O)N1CCC[C@H]1C(=O)N(C)[C@H](CC(C)C)C(=O)N[C@@H]1C(=O)N(C)[C@H](CC(C)C)C(=O)N[C@H](CC(C)C)C(=O)N(C)[C@@H](CC(C)C)C(=O)N(C)[C@H](C)C(=O)N[C@H](CC(C)C)C(=O)N2CCC[C@H]2C(=O)O[C@@H]1C has PAMPA 2.9 × 10^-6 cm/s. For CC(=O)N1CCC[C@@H]1C(=O)N(C)[C@@H](CC(C)C)C(=O)N[C@@H]1C(=O)N[C@@H](CC(C)C)C(=O)N[C@@H](CC(C)C)C(=O)N[C@@H](CC(C)C)C(=O)N(C)[C@@H](C)C(=O)N[C@H](CC(C)C)C(=O)N2CCC[C@H]2C(=O)O[C@@H]1C the data give PAMPA 0.37 × 10^-6 cm/s. Listed for CC(=O)N1CCC[C@@H]1C(=O)N(C)[C@@H](CC(C)C)C(=O)N[C@@H]1C(=O)N(C)[C@@H](CC(C)C)C(=O)N(C)[C@H](CC(C)C)C(=O)N(C)[C@@H](CC(C)C)C(=O)N(C)[C@H](C)C(=O)N[C@@H](CC(C)C)C(=O)N2CCC[C@@H]2C(=O)O[C@@H]1C: PAMPA 4.5 × 10^-6 cm/s. The entry for CC(=O)N1CCC[C@H]1C(=O)N(C)[C@@H](CC(C)C)C(=O)N[C@@H]1C(=O)N(C)[C@H](CC(C)C)C(=O)N(C)[C@@H](CC(C)C)C(=O)N(C)[C@@H](CC(C)C)C(=O)N(C)[C@@H](C)C(=O)N[C@@H](CC(C)C)C(=O)N2CCC[C@H]2C(=O)O[C@@H]1C lists PAMPA 5.1 × 10^-6 cm/s. CC(=O)N1CCC[C@@H]1C(=O)N(C)[C@@H](CC(C)C)C(=O)N[C@@H]1C(=O)N[C@@H](CC(C)C)C(=O)N[C@@H](CC(C)C)C(=O)N[C@H](CC(C)C)C(=O)N[C@@H](C)C(=O)N[C@@H](CC(C)C)C(=O)N2CCC[C@@H]2C(=O)O[C@@H]1C is reported with PAMPA 0.12 × 10^-6 cm/s.

Excerpt, the opening 2 entries:

For CC(=O)N1CCC[C@H]1C(=O)N(C)[C@H](CC(C)C)C(=O)N[C@@H]1C(=O)N(C)[C@@H](CC(C)C)C(=O)N[C@H](CC(C)C)C(=O)N(C)[C@@H](CC(C)C)C(=O)N(C)[C@@H](C)C(=O)N[C@H](CC(C)C)C(=O)N2CCC[C@@H]2C(=O)O[C@@H]1C the data give PAMPA 0.78 × 10^-6 cm/s.
For CC(=O)N1CCC[C@@H]1C(=O)N(C)[C@H](CC(C)C)C(=O)N[C@@H]1C(=O)N(C)[C@H](CC(C)C)C(=O)N(C)[C@H](CC(C)C)C(=O)N(C)[C@@H](CC(C)C)C(=O)N(C)[C@H](C)C(=O)N[C@H](CC(C)C)C(=O)N2CCC[C@H]2C(=O)O[C@@H]1C the data give PAMPA 6.3 × 10^-6 cm/s.

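Lipid, pH, incubation time, direction and concentration are not recorded in the data file. The list need not hold all peptides of the study. Entries at the database's floor value (log10 P of -10) are not listed.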